These results are taken from US6677299B2, “Method to increase cerebral blood flow in amyloid angiopathy” (The Trustee of Columbia University in the city of New York, priority 2000, dated 2004).

Chains of the proteins cited; added tags and fusions are not shown. Residues count along the entry.
UniProt Q62151, 23-402: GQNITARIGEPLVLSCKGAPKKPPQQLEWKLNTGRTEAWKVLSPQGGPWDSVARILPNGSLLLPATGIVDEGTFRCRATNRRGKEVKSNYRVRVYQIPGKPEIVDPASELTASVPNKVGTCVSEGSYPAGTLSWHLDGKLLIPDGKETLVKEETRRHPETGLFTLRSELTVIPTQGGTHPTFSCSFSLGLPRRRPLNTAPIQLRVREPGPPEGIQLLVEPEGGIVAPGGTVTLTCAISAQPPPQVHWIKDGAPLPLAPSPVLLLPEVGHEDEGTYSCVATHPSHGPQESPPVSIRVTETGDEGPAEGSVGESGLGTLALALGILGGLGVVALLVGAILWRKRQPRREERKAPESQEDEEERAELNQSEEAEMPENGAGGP

Assay type in all cases: in vivo, mice
Assay [1] deals with T1, RAGE (Mus musculus, UniProt Q62151).
T1 construct: The first set of studies employed synthetic Aβ infused in to wild-type mice; from tissue; host or cells: brain vasculature (blood-brain barrier) of living wild-type mice
The experiment in a line: Brain perfusion model: Aβ binding to brain capillaries and transport across the BBB. The settings on record: reagent in arterial inflow; 125I-Aβ 4 nM, 10 min. The method, then:
FIGS. 1A-1F. […] FIG. 1A and bFIG.
Brain perfusion model. […] Details of the extracorporeal perfusion circuit were as reported elsewhere. ^22,23,38,39 At the start of the perfusion, the contralateral common carotid artery was ligated, and both jugular veins severed to allow free drainage of the perfusate. Brains were perfused with oxygenated perfusion medium at a flow rate of 1 ml/min by peristalitic pump. […] Perfusion pressure and animal's own arterial blood pressure were continuously monitored. Blood gasses pO2, pCO2 and pH and electrolytes in the arterial inflow and in animal's own blood were monitored.
Injection of radioisotopes for transport studies. […] When the effects of different unlabeled molecular reagents were tested, those were injected 5 min prior to tracers injection and than simultaneously with radiolabled ligands. At predetermined times within 10 min mice were sacrificed by decapitation, and brain tissue prepared for radioactivity analysis. TCA and HPLC analysis as we described were used to determine molecular forms of uptake of radiolabeled Aβ by the BBB.^22,23 Capillary-depletion technique was used to separate micravascular pellet from capillary-depleted brain to quantify in vivo binding to microvessels vs. transport into brain parenchyma, as we reported.^22, 23
Mathematical modeling for transport studies. […] The rate of entry (KIN) is computed from eq. […]

The target in assay [2] is T1, RAGE. The assay is described as follows: Aβ-induced cytokine expression and oxidant stress in brain (TNF-α, IL-6, HO-1) after BBB transport of circulating Aβ1-40. Here is the method:
FIGS. 2A-2C. Effect of RAGE blockade on Aβ-induced cytokine expression and oxidant stress in brain after BBB transport of circulating Aβ1-40. Expression of TNF-α mRNA (left) and protein (right) (FIG. 2A), and immunocytochemical detection of IL-6 (FIG. 2B) and HO-1 (FIG. 2C) 15 min following transport of human Aβ1-40 (4 nM) across the BBB in the presence or absence of α-RAGE (40 mg/ml) or sRAGE (40 nM) in the arterial inflow in a brain perfusion model. Graphs in FIGS. 2A-2C illustrate image analysis of immunocytochemical experiments in which mice were treated with either vehicle, Aβ1-40 alone, or Aβ1-40 plus α-RAGE or sRAGE, as indicated.
Brain perfusion model. This model has bee extensively used to determine peptide and protein binding to and transport across the BBB.^22,23,38,39 For intra-arterial brain perfusion technique mice were anesthetized with i.p. ketamine (0.5 mg/kg) and xylazine (5 mg/kg), and the right common carotid artery isolated and connected to an extracorporeal perfusion circuit via fine polyethylene cannula (PE10). […] Perfusion pressure and animal's own arterial blood pressure were continuously monitored. Blood gasses pO2, pCO2 and pH and electrolytes in the arterial inflow and in animal's own blood were monitored. […]
Immunocytochemical analysis: for TNF-α, IL-6 and HO-1 in brains of wild type mice and TgAPPsw+/− mice was performed using standard techniques, as described (26). Briefly, fresh-frozen, acetone-fixed brain sections of wild type and TgAPPsw+/− mice were stained with anti-TNF-a IgG (Santa Cruz), anti-IL-6 IgG (Santa Cruz and anti-HO-1 IgG (StressGen) as primary antibodies. The extent and intensity of staining in cellular elements was quantitated using the Universal Imaging System and NIH imaging systems. The relative intensity of cellular staining in control brain sections was compared to treated brains. Routine control sections included deletion of primary antibody, deletion of secondary antibody and the use of an irrelevant primary antibody.

Assay [3] concerns the target T1, RAGE. The experiment in a line: Cerebral blood flow (CBF) after i.v. administration of Aβ1-40, laser Doppler flowmetry. The method, then:
Cerebral blood flow measurement: CBF was monitored by Laser Doppler Flowmetry (LDF, Transonic BLF21, NY) as we described. ^36LDF probes (0.8 mm diameter) were positioned on the cortical surface 2 mm posterior to the bregma, both 3 and 6 mm to each side of midline. The CBF was also determined by quantitative autoradiography using ^14C-iodoantipryine (IAP) using recently reported modified method in the whole mouse. ^37Briefly, 0.15 μCi ^14C-IAP was injected i.p. and animals sacrificed after 2 min. Blood from the frozen heart was sampled to obtain the final blood ^14C-IAP level. Frozen brains were coronally sectioned at 20 μm and exposed to autoradiographic film along with radioactive ^14C standards. After a 5 day exposure, the film was developed and the resulting images analyzed by quantitative autoradiography to determine levels of ^14C-IAP in individual brain regions. The CBF was calculated as reported:^37,40 F=−λln (1−CIN (T)/λ CPL)/T, where F is the rate of flow per unit mass(^−1), CIN (T) is activity in unit weight of brain at time T, CPL is the concentration of ^14C-IAP in the blood, and λ is the distribution ratio of ^14C-IAP between brain and the perfusion medium or blood at the steady state, i.e. 0.8.

[4] abbreviates: after Aβ transport across the BBB.

Consider “sRAGE: soluble receptor for advanced glycation endproduct”, for which the “effect on Aβ transport into brain (BBB transport of Aβ)” value in assay [1] is reported as “abolished”. Besides, the “Aβ-induced TNF-β expression” value in assay [2] (15 min after transport of circulating Aβ across the BBB) was “abolished”. Besides, in assay [2] (setting [4]), the “Aβ-induced neuronal expression of HO-1” value was “abolished” and the “Aβ-induced neuronal expression of IL-6” value is on record as “abolished”. The Aβ-induced cerebral vasospasm result in assay [3] (FIG. 3c) is on record as “abolished”. Further, the “CBF changes produced by murine or human Aβ1-40” value in assay [3] (α-RAGE 1-10 mg/ml, sRAGE 40 nM, CBF values between 30 and 45 min after i.v. administration of peptides) is recorded as “blocked”.
